The test system of this test is CD69 expression on B cells in human whole blood. In words: Whole Blood Assay of BCR-Stimulated CD69 Expression on B Cells. It counts as cell-based.

As a reminder, the pIC50 is the IC50 on a negative log10 scale, so that one unit is a factor of ten.

pIC50: −log10 of the molar value.

As for `Cc1cc(C(N)=O)c2[nH]c3cc(C(C)(C)O)ccc3c2c1-c1cccc(-n2c(=O)c3cccc(F)c3n(C)c2=O)c1C` (atropisomer, axis not shown) [Example 29, 4-(R)-(3-(S)-(8-Fluoro-1-methyl-2,4-dioxo-1,2-dihydroquinazolin-3(4H)-yl)-2-methylphenyl)-7-(2-hydroxypropan-2-yl)-3-methyl-9H-carbazole-1-carboxamide], the negative-log IC50 (pIC50) was 6.62.

Source of the values: patent US9850258B2, “Substituted tetrahydrocarbazole and carbazole carboxamide compounds” (BRISTOL-MYERS SQUIBB COMPANY, priority 2013, dated 2017).
